Legend:
Type in all cases: cell-based
Conditions in all cases: 1 μM αCGRP(8–37)
[1] = target: T1, CGRP (CLR/RAMP1) receptor in WK1 cell line (Homo sapiens, UniProt O60894+Q16602); experiment: cAMP accumulation, αCGRP and AM, WK1
T1 construct: the other cell lines have functional CGRP (CLR/RAMP1) receptors; endogenous in cells; host or cells: PB1, JK2 and WK1 patient-derived high-grade glioma cell lines
Method: (§1) Primary patient high-grade glioma (HGG) cell lines, in vitro surrogates of glioblastoma, were developed by QIMR-Berghofer Medical Research Institute (Brisbane, Australia) and represent 3 distinct GBM subtypes: SB2b and PB1 (classical), JK2 (proneural) and WK1(mesenchymal), who supplied these directly for this study. GBM cell lines were cultured as adherent monolayers on matrigel (BD Biosciences)-coated flasks using StemPro NSC SFM serum free cell culture medium (Thermo Fisher Scientific) supplemented with 20 ng/ml EGF and 20 ng/ml FGFb, 1% D-glutamine and 1% of penicillin/ streptomycin (further referred as StemPro complete medium).
(§2) GBM cell lines were seeded at 38000 cells/well (SB2b) or 35,000 cells/well (PB1, JK2 and WK1) in 96-well matrigel-coated plates and incubated for 24 h at 37°C, 5% CO2 in humidified incubator in StemPro complete medium. Media was replaced with stimulation buffer (phenol red free F12 media, 0.1% BSA, 0.5 mM IBMX, pH 7.4). […] Cells were lysed (0.3% Tween 20, 5 mM Hepes, 0.1% BSA, pH 7.4) and 5 μl of cell lysate from each well was transferred to a corresponding well of 384-well optiplate. […] Data were analysed by three-parameter logistic curve and are presented as percentage of 10^− 5 M forskolin response.

Amino acid sequences for entries named in this document (tags omitted). Residues count along the entry.
UniProt O60894, 27-148: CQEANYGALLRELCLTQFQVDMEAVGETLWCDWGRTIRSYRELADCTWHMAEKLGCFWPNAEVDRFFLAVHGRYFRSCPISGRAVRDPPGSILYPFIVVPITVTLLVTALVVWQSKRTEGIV
UniProt Q16602, 23-461: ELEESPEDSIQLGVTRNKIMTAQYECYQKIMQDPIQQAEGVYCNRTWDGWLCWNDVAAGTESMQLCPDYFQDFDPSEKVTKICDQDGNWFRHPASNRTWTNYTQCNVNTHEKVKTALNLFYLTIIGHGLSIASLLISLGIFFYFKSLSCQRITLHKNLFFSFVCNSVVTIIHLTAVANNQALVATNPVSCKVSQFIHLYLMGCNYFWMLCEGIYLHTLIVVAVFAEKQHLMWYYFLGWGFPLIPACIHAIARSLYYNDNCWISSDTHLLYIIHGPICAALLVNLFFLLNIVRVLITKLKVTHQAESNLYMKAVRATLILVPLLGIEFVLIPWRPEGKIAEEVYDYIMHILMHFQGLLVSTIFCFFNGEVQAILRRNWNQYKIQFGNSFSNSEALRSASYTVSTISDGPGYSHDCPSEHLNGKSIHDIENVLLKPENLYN

[2] = target: T2, CGRP (CLR/RAMP1) receptor in JK2 cell line (Homo sapiens, UniProt O60894+Q16602); experiment: cAMP accumulation, αCGRP and AM, JK2
T2 construct: the other cell lines have functional CGRP (CLR/RAMP1) receptors; endogenous in cells; host or cells: PB1, JK2 and WK1 patient-derived high-grade glioma cell lines
Method: as §1, §2

[3] = target: T3, CGRP (CLR/RAMP1) receptor in PB1 cell line (Homo sapiens, UniProt O60894+Q16602); experiment: cAMP accumulation, αCGRP and AM, PB1
T3 construct: the other cell lines have functional CGRP (CLR/RAMP1) receptors; endogenous in cells; host or cells: PB1, JK2 and WK1 patient-derived high-grade glioma cell lines
Method: as §1, §2

For αCGRP(8–37): CGRP receptor antagonist, the “decrease in potency of αCGRP response by antagonist” value (shortened to “decrease in potency”) [1] was ~100 fold, the “shift in the EC50 of αCGRP by antagonist” value [1] was 2 logarithmic unit and the “decrease in potency” value [2] was ~100 fold. For the same substance, the “shift in the EC50 of αCGRP by antagonist” value [2] was 2 logarithmic unit, the “decrease in potency” value [3] was ~100 fold and the “shift in the EC50 of αCGRP by antagonist” value [3] was 2 logarithmic unit.
